≈ marks a conversion by molar mass, not a printed value. Read-outs that look alike come from different tables or passages of the source.
What was measured:
vertebral artery = assay: Direct vasodilating effect on vertebral artery, constant volume perfusion; type: in vivo, mongrel dog; conditions: intra-arterial, anesthetized dogs
Text: Heparin (1000 μ/Kg, i.v.) was used as an anticoagulant. The methods for perfusion of each artery were as following: 1) For the vertebral artery, the arterial blood led from the left common carotid artery was collected by the tygon tubing and perfused by the Sigma-motor pump (Mippleport N.Y. T-8) into the right vertebral artery. 2) For the femoral artery, the arterial blood led from the proximal femoral artery was perfused by the Sigma-motor pump into the distal femoral artery. […] All drugs were given into a rubber tube connected close to the each arterial cannula by a microinjector (Jintan Terumo, NSN-100).

guinea-pig ileum = assay: Spasmolytic activity in isolated guinea-pig ileum (Magnus apparatus); conditions: Cavia porcellus, ±S.E.
Description: Methods: Isolated guinea-pig ileum was suspended in Tyrodes solution by use of Magnus apparatus and the movements of the muscle were recorded in a kymograph by an isotonic lever.

[1] = test system: vertebral and femoral blood flow; assay: Vertebral and femoral blood flow in anesthetized dogs; type: in vivo, mongrel dog; conditions: 0.01 mg/kg i.v. (0.01 or 0.03 mg/kg); significance vs SKF 24260

## COC(=O)C1=C(C)NC(C)=C(C(=O)OC)C1c1ccccc1[N+](=O)[O-] [Nifedipine, 4-(2'-nitrophenyl)-2,6-dimethyl-1,4-dihydropyridine-3,5-dicarboxylic acid dimethyl ester]
Vertebral artery
  Selectivity ratio (ED50 in femoral artery/ED50 in vertebral artery): 0.50
guinea-pig ileum; read-out: Spasmolytic activity, 50% inhibition of contractile response, Acetylchloline 10^-7 g/ml
  IC50: 0.016 µg/mL (≈ 0.0462 µM)
guinea-pig ileum; read-out: Spasmolytic activity, 50% inhibition of contractile response, BaCl2 2×10^-4 g/ml
  IC50: 0.0033 µg/mL (≈ 0.00953 µM)
guinea-pig ileum; read-out: Spasmolytic activity, 50% inhibition of contractile response, Histamine 10^-7 g/ml
  IC50: 0.055 µg/mL (≈ 0.159 µM)
[1]
  Separation ratio (percent increase of vertebral blood flow / that of femoral blood flow): 1.14 ± 0.36

Source: US3985758A, “1,4-Dihydropyridine derivatives” (Yamanouchi Pharmaceutical Co., Ltd., priority 1973, dated 1976)
